## Yeast mating assay 2: variants of the scFv Ab-95

Reference: Engelhart et al. 2022, doi:10.1038/s41597-022-01779-4. File: FLAb, binding data.

All variants were tested on one target, the spike HR2 peptide PDVDLGDISGINAS (SARS-CoV-2).

The variants keep the heavy chain, the linker and the frameworks of Ab-95 (scFv order VH, a (GGGGS)3 linker, VL).
VH: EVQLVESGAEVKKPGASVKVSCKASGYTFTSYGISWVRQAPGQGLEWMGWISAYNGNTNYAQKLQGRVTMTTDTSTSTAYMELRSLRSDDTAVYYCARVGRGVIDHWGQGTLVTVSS
VL: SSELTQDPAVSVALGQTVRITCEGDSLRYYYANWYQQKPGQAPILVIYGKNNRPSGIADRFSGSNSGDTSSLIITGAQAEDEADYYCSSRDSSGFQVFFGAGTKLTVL

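The starting antibody came from a phage panning campaign against this peptide. AAYL52 was designed without a model: most single CDR substitutions and a random sample of double and triple ones. In AlphaSeq, yeast of one mating type display the scFv and yeast of the other type display the target. After mating in shaken culture at 30 °C for 16 h, diploids were selected and their barcode pairs sequenced. Read counts were normalised to the haploid input and turned into Kd by a linear fit to BCL2-family pairs of known affinity, for each replicate. Mating was done three times.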

Positions count from residue 1 of the parent VL; G24S puts S in place of G. Affinities are written as log10 Kd with Kd in nM; a lower number is a better binder. A pair that was not seen in that replicate is written "nd"; this usually means weak binding, but a binder can also be missed. Background: pairings of library AAYL52 with three empty control strains gave a value in 28% of cases (median 3.91, 5th percentile 2.90). Values in that range, when seen in few replicates, are hard to tell from nonspecific mating. The control count says in how many pairings with the empty strains this scFv gave a signal, with their mean in brackets. For reference, the parent read 2.31 as the reference entry and 2.25 as a member of this library.

changes,log10 Kd (nM) by replicate,signal with controls
G24S L27N R53G,3.85 / nd / nd,3 of 9 (3.46)
N51K S88G Q96C,2.76 / 3.93 / 4.19,4 of 9 (3.73)
E23C G49L N51P,nd / nd / 4.37,4 of 9 (4.12)
A32R F95H,nd / nd / nd,3 of 9 (4.20)
S26H R90W G94A,2.95 / 2.05 / 2.95,1 of 9 (4.40)
Y30V A32F N33V,2.50 / 1.89 / 3.21,2 of 9 (4.04)
L27D S88Y S93L,4.17 / 3.08 / nd,3 of 9 (4.37)
Y29H N51Q S55Q,2.47 / 2.33 / 2.29,2 of 9 (4.03)
G49N S93L,3.66 / 4.64 / 4.30,2 of 9 (2.96)
Y30R R53Y V97F,4.35 / 4.36 / 3.91,3 of 9 (4.43)
G24F Y30Q S89D,1.94 / 1.94 / 1.42,0 of 9
Y31L A32N S93K,3.20 / 3.75 / nd,4 of 9 (3.50)
G24N D25M K50H,4.96 / nd / nd,0 of 9
G24Q S88I S93C,3.46 / 5.64 / 4.37,5 of 9 (3.79)
Y31L S93T F98E,2.54 / 2.53 / 1.68,0 of 9
L27C R28H V97T,nd / nd / nd,0 of 9
D25F S55D S93L,2.09 / 1.90 / 1.48,7 of 9 (3.94)
E23D G49L N51V,3.23 / 3.77 / nd,3 of 9 (3.71)
Y31P R53K R90G,3.00 / 3.70 / nd,2 of 9 (3.33)
S26E Y29I K50Q,4.02 / nd / 3.10,3 of 9 (4.58)
Y30N S89T R90C,0.91 / 0.94 / 0.39,6 of 9 (4.13)
D25P Y29F N33K,nd / 4.85 / 4.82,2 of 9 (4.87)
L27N G49M F95C,nd / nd / nd,1 of 9 (4.71)
E23N G24I D91F,4.04 / 3.03 / nd,2 of 9 (4.51)
G24L R28A P54V,nd / 3.81 / nd,0 of 9
R28C N52A S92M,3.62 / 3.74 / nd,1 of 9 (4.67)
R28W S93E,2.71 / 2.89 / 2.41,3 of 9 (4.05)
D91I G94W,2.32 / 2.02 / 2.03,4 of 9 (3.87)
D91R Q96R V97F,2.14 / 2.26 / 2.82,6 of 9 (4.01)
E23S G49D G94H,2.85 / 2.91 / 2.76,2 of 9 (3.12)
Y30C R53C V97D,nd / nd / 3.00,2 of 9 (4.31)
Y29M S89H S93T,2.89 / 2.69 / 3.35,3 of 9 (3.18)
Y29P R53K F98N,4.91 / nd / nd,1 of 9 (2.65)
S26N S88Q Q96C,nd / nd / nd,0 of 9
N33D R53T V97Q,nd / 4.55 / nd,0 of 9
A32N S92W F98R,4.02 / 3.09 / 4.06,2 of 9 (4.45)
G94W,2.15 / 2.45 / 2.32,0 of 9
D25K N51R S89T,4.92 / 3.36 / nd,5 of 9 (3.61)
D25H L27R G49K,nd / 5.70 / 4.13,2 of 9 (4.38)
N52G S93D F95G,2.90 / 2.89 / 2.80,2 of 9 (3.91)
G24W Y31V S92M,1.90 / 1.86 / 1.41,5 of 9 (4.57)
D25N Y31D V97I,1.03 / 0.80 / 0.29,1 of 9 (3.34)
S55Q F95I Q96F,nd / 4.13 / 3.48,4 of 9 (3.86)
D91L,3.24 / 4.93 / 3.00,5 of 9 (3.45)
S26T R53I F95M,nd / nd / 3.13,4 of 9 (4.13)